Experimental data from patent US9145392B2, “Imidazole amines as modulators of kinase activity” (Merck Patent GmbH, priority 2011, dated 2015).

The chains behind the UniProt entries cited, without tags or fusion partners.
UniProt P23443, whole entry T412E: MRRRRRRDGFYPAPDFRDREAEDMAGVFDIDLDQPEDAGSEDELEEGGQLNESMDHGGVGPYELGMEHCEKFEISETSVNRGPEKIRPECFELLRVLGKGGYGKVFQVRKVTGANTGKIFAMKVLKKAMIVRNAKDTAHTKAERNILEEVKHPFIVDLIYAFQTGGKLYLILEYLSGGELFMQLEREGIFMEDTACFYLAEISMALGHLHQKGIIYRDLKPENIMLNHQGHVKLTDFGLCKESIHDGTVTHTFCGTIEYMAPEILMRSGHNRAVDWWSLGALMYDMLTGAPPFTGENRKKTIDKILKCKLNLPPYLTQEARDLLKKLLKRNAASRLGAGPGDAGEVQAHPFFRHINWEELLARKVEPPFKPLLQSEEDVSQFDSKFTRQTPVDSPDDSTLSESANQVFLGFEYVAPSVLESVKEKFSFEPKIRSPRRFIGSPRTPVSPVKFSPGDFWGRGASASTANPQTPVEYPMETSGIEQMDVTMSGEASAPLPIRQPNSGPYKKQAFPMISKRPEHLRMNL

Biological target: P70S6K (T412E mutant) (Homo sapiens (Human), UniProt P23443, T412E)
Assay: P70S6K enzyme assay
Type: biochemical
Conditions: read-out: IC50 p70S6K

For `Cn1cc(-c2ccc(F)c(C(F)(F)F)c2)nc1C1CCN(c2ncnc(N)c2-c2ccc3[nH]ccc3c2)CC1`, the IC50 was 18 nM.
